Test system: opioid related adverse events
Conditions: morphine equivalent 12 mg, q6h 48 hr

Compound	Constipation - moderate/severe, Adverse Events (%)	Constipation mild/mod/severe, Adverse Events (%)	Dizziness - moderate/severe, Adverse Events (%)	Dropouts (%)
CN1CC[C@]23c4c5ccc(O)c4O[C@H]2[C@@H](O)C=C[C@H]3[C@H]1C5 [Morphine, morphine]	0%	10%	7%	7%
COc1ccc2c3c1O[C@H]1C(=O)CC[C@@]4(O)[C@@H](C2)N(C)CC[C@]314 [Oxycodone, oxycodone]	0%	6%	–	–
